Consider three compounds from ChEMBL document CHEMBL1154826, “Dual-action lipophilic iminosugar improves glycemic control in obese rodents by reduction of visceral glycosphingolipids and buffering of carbohydrate assimilation” (J Med Chem, 2010).

Sequences of proteins named here, by UniProt entry; tags and fusion partners are left off. Residues count along the entry.
UniProt P09848, 869-1927 limits assumed: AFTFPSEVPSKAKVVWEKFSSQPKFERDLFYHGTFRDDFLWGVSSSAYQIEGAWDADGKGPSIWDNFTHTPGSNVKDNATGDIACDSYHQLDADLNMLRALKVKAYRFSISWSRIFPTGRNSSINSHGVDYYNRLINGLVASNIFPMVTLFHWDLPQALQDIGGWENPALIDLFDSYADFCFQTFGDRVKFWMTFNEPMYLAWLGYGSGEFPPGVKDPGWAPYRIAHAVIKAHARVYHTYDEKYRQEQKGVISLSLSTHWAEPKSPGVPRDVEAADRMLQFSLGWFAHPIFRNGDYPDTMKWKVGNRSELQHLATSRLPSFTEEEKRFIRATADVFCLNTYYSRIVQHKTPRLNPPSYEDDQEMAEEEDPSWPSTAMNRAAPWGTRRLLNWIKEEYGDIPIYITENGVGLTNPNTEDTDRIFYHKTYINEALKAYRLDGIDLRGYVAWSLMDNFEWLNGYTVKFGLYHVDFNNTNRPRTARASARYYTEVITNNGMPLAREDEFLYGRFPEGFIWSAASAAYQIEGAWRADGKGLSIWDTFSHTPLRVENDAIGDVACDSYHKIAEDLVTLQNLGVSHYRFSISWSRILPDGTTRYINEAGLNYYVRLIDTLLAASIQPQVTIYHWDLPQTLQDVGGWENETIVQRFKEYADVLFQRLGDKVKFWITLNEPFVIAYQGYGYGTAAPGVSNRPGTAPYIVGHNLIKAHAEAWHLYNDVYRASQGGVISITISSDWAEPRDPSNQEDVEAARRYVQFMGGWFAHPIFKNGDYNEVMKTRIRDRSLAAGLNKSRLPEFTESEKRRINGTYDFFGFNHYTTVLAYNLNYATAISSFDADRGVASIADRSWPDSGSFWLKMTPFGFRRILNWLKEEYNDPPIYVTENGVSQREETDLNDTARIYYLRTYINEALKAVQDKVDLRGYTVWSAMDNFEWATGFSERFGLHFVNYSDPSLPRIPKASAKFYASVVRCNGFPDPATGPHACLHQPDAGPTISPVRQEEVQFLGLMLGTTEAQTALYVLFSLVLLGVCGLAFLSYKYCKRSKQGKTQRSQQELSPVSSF

Structures are written as SMILES. A value given as a limit tells only on which side of the number the result lay.

The test deals with Lactase/phlorizin hydrolase (Homo sapiens, UniProt P09848). In words: Inhibition of lactase by HPLC.

With `OC[C@H]1NC[C@H](O)[C@@H](O)[C@@H]1O` [DUVOGLUSTAT], half-maximal inhibition (IC50) required 62 µM.
Under `OC[C@H]1NC[C@H](O)[C@@H](O)[C@H]1O` stands 50 µM; under `OC[C@@H]1NC[C@H](O)[C@@H](O)[C@@H]1O`, over 1000 µM.
